Measurements reported in publication PMC8157280, “Toxicokinetic/Toxicodynamic Interaction Studies in Rats between the Drugs of Abuse γ-Hydroxybutyric Acid and Ketamine and Treatment Strategies for Overdose” (Pharmaceutics, 2021).

How the values were obtained:
[1] = set-up: method as in PMID 12667908; details: GHB 400 mg/kg i.v. alone; cited from earlier work
[2] = GHB blood-brain partitioning at steady state; details: GHB 400 mg/kg i.v. bolus + 208 mg/kg/h infusion alone; steady state 4 h

O=C(O)CCCO [GHB, γ-hydroxybutyric acid]
GHB Brain/Plasma Ratio at RRR [1]: 0.19 ± 0.02 | Cplasma GHB [2]: 0.89 ± 0.05 mg/mL | GHB Brain/Plasma Ratio [2]: 0.24 ± 0.02
